Experimental data: article PMC3460462 (The Journal of Biological Chemistry, 2012)

What was measured:
hFPR1 = target: T1, hFPR1 (Homo sapiens, UniProt P21462, N192K/R163H/V101L); assay: Single-cell resolution Ca2+ imaging, hFPR1; type: cell-based; conditions: 9 μM fMLF
T1 sequence (P21462 1-350 V101L/R163H/N192K): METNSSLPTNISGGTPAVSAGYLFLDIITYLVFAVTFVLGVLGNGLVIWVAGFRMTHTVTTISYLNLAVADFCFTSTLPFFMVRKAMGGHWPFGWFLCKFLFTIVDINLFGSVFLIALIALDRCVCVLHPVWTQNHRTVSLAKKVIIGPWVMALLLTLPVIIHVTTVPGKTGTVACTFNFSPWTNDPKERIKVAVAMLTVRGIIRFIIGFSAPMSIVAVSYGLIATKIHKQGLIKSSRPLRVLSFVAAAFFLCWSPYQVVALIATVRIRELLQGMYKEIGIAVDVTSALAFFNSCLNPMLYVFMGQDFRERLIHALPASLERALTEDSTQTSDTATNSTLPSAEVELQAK

hFPR2 = target: T2, hFPR2 (Homo sapiens, UniProt P25090); assay: Single-cell resolution Ca2+ imaging, hFPR2; type: cell-based; conditions: 9 μM fMLF; single-cell Fura-2 Ca2+ imaging
T2 sequence (P25090 1-351): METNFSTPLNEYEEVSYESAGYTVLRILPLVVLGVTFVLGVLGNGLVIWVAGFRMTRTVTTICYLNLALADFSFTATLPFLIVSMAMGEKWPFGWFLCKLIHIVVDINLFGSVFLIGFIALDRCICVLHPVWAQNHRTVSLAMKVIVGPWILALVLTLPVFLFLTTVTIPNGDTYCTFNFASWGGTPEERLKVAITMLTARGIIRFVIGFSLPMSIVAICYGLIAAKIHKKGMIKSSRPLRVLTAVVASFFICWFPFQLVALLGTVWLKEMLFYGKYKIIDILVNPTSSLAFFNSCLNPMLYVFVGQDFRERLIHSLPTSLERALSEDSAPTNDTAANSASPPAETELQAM

N-formylmethionine-leucine-phenylalanine [fMLF]
number of responding cells (hFPR1; of 364 cells transfected with hFPR1, single-cell Ca2+ imaging): 258 cells
activation by fMLF (in words) (hFPR1; single-cell Fura-2 Ca2+ imaging): could be activated
activation by fMLF (in words) (hFPR2): could be activated
